Assay results taken from PMC179894.

Key:
plasmin = plasmin (UniProt P00747); assay: enzyme inhibition kinetics
thrombin = thrombin (UniProt P00734); assay: enzyme inhibition kinetics

Substance | second-order rate constant of inhibition (plasmin) | second-order rate constant of inhibition (thrombin)
PAI-1 Glu351Ala (from UniProt P05121 24-402) (natural protein) | 62900 M⁻¹ s⁻¹ | 1740 M⁻¹ s⁻¹
PAI-1 Glu351Arg (from UniProt P05121 24-402) (natural protein) | 71200 M⁻¹ s⁻¹ | 3300 M⁻¹ s⁻¹
